Columns and labels:
Type in all cases: functional
[1] = Downregulation of Cyclin D1 level in human NCI-H1703 cells at 7.5 uM by measuring fold change by Western blot analysis relative to control
[2] = Downregulation of NSD3 level in human NCI-H1703 cells at 5 uM by measuring fold change by Western blot analysis relative to control
NCI-H1703 [3] = assay: Induction of apoptosis in human NCI-H1703 cells assessed as decrease in NSD3 protein expression at 5 uM by measuring fold change by Western blot analysis relative to control
NCI-H1703 [4] = assay: Induction of apoptosis in human NCI-H1703 cells assessed as decrease in Bcl-XL protein expression at 10 uM by measuring fold change by Western blot analysis relative to control
NCI-H520 = assay: Induction of apoptosis in human NCI-H520 cells assessed as decrease in MCL-1 protein expression at 10 uM by measuring fold change by Western blot analysis relative to control
[5] = Downregulation of Cyclin D1 level in human NCI-H520 cells at 3 uM by measuring fold change by Western blot analysis relative to control
[6] = Downregulation of c-Myc level in human NCI-H1703 cells at 5 uM by measuring fold change by Western blot analysis relative to control
[7] = Downregulation of CDC25A level in human NCI-H1703 cells at 5 uM by measuring fold change by Western blot analysis relative to control

Cc1cc(CNCCCCCCCCCCC(=O)N[C@H](C(=O)N2C[C@H](O)C[C@H]2C(=O)N[C@@H](C)c2ccc(-c3scnc3C)cc2)C(C)(C)C)cc(C)c1-c1ncn(C)c1-c1ccnc2cc(F)ccc12
fold change (FC) [1]: 0.51 | fold change (FC) [2]: 0.85 | fold change (FC) (NCI-H1703 [3]): 0.87 | fold change (FC) (NCI-H1703 [4]): 0.79 | fold change (FC) (NCI-H520): 0.52 | fold change (FC) [5]: 0.76 | fold change (FC) [6]: 0.87 | fold change (FC) [7]: 0.87

From ChEMBL document CHEMBL5338706, “Discovery of a potent and selective proteolysis targeting chimera (PROTAC) degrader of NSD3 histone methyltransferase” (Eur J Med Chem, 2022)
